Data from US20260116920A1, “HUMAN TRANSFERRIN RECEPTOR BINDING PEPTIDE” (PEPTIDREAM INC., priority 2021, published 2026).

Sequences of proteins named here, by UniProt entry; tags and fusion partners are left off. Residues count along the entry.
UniProt P02786, 89-760 limits assumed: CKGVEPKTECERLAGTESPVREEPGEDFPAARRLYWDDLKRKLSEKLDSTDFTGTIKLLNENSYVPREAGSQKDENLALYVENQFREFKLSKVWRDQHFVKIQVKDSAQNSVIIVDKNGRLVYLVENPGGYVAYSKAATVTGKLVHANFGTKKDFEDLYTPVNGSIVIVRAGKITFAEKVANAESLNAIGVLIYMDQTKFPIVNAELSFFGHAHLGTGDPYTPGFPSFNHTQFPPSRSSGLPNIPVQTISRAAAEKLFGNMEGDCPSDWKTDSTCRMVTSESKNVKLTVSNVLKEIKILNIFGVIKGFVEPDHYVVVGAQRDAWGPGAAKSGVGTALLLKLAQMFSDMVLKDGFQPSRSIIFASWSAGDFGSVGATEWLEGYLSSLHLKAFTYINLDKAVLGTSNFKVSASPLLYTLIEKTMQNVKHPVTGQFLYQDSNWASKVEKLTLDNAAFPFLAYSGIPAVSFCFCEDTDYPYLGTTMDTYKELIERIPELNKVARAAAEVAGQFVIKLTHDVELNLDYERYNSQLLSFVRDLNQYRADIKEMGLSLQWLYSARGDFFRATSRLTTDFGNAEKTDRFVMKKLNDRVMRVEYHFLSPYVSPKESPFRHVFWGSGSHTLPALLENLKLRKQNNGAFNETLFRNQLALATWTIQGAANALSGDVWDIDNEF

What follows are molecules tested against T1, human transferrin receptor (hTfR) (Homo sapiens, UniProt P02786) (assay: Evaluation of molecular interaction between transferrin receptor (hTfR) and peptide using surface plasmon resonance (SPR)). Details: KD class of the peptide with linker for hTfR by surface plasmon resonance; read-out: SPR.
T1 construct: made in house
Type: binding
Description: Evaluation Test of Molecular Interaction Between Transferrin Receptor (hTfR) and Peptide Using Surface Plasmon Resonance (SPR)
The intermolecular interactions of various synthesized peptides with the transferrin receptor (hTfR) by surface plasmon resonance (SPR) of the peptides were tested by the methods described below. Specific test methods are shown below.
NTA sensor chip (Global Life Sciences Technologies Japan K.K.) was inserted into BiacoreT200 (Global Life Sciences Technologies Japan K.K.), then the priming operation was performed three times by using running buffer containing: 10 mM HEPES pH 8.0 (Nacalai Tesque, Inc.), 150 mM NaCl (Nacalai Tesque, Inc.), 0.05% Tween 20 (Nacalai Tesque, Inc.), 0.1% BSA (SIGMA-ALDRICH) and 1.0% DMSO (FUJIFILM Wako Pure Chemical Corporation), and equilibrated at a flow rate of 30 μL/min. 350 mM EDTA solution was reacted at a flow rate of 10 μL/min for 60 seconds, 0.5 mM […] solution (Kishida Chemical Co., Ltd.) was reacted at a flow rate of 10 μL/min for 60 seconds, and then the NTA sensor chip was washed with 3 mM EDTA solution (Nacalai Tesque, Inc.) at a flow rate of 10 μL/min for 60 seconds. After mixing 50 μL each of 60 mM EDC solution (Global Life Science Technologies Japan K.K.) and 650 mM NHS solution (Global Life Science Technologies Japan K.K.), the reaction was carried out at a flow rate of 10 μL/min for 420 seconds. 150 μL of 0.5 μM hTfR dimer solution was prepared by dilution with running buffer and reacted at a flow rate of 10 μL/min for 300 seconds to immobilize hTfR on the NTA sensor chip. For the human transferrin receptor (hTfR), recombinant hTfR described in Example 2 of WO2018/124121 was used. After immobilization, capping was performed by reacting with 1.0 M ethanolamine solution (Global Life Sciences Technologies Japan K.K.) at a flow rate of 10 μL/min for 420 seconds. Peptide lysate prepared in DMSO solution to 10 mM was diluted with running buffer to be a final concentration of 10 μM peptide lysate, then peptide solutions of 100 nM, 50 nM, 25 nM, 10 nM, and 5 nM were prepared. Using the above samples, the kinetics of the peptide against hTfR was obtained by SPR measurement.
The kinetic evaluation model was single-cycle kinetics, and curve fitting was performed using Biacore T200 Evaluation Software Version 3.0 (Global Life Science Technologies Japan K.K.). The binding of the peptide to hTfR was evaluated by performing curve fitting on the obtained sensorgram by least squares method and obtaining the KD value.
CC[C@H](C)[C@@H]1NC(=O)[C@H](Cc2ccc(O)cc2)NC(=O)[C@H](Cc2ccc(O)cc2)NC(=O)[C@H](CC(N)=O)NC(=O)[C@H](Cc2c[nH]c3ccccc23)NC(=O)[C@H](C(C)C)NC(=O)[C@H](Cc2ccccc2)N(C)C(=O)[C@H](C(C)C)NC(=O)[C@H](C)NC(=O)CSC[C@@H](C(=O)NCC(=O)N[C@@H](CS)C(N)=O)NC(=O)[C@H](Cc2ccc(O)cc2)N(C)C(=O)[C@H](Cc2ccc(O)cc2)NC(=O)[C@H](CCCNC(=N)N)NC(=O)[C@H](CCCNC(=N)N)NC(=O)[C@H]([C@@H](C)CC)NC1=O [compound 264] gave a Kd of 1 to 100 nM.

Same assay, conditions: SPR, KD class of the peptide with linker for hTfR by surface plasmon resonance
Work on CC[C@H](C)[C@@H]1NC(=O)[C@H](Cc2ccc(O)cc2)NC(=O)[C@H](Cc2ccc(O)cc2)NC(=O)[C@H](CC(N)=O)NC(=O)[C@H](Cc2c[nH]c3ccccc23)NC(=O)[C@H](C(C)C)NC(=O)[C@H](Cc2ccccc2)N(C)C(=O)[C@H](C(C)C)NC(=O)[C@H](C)NC(=O)CSC[C@@H](C(=O)NCC(=O)NCC(=O)NCC(=O)NCC(=O)N[C@@H](CO)C(=O)N[C@@H](CO)C(=O)N[C@@H](CCCCN=[N+]=[N-])C(N)=O)NC(=O)[C@H](Cc2ccc(O)cc2)N(C)C(=O)[C@H](Cc2ccc(O)cc2)NC(=O)[C@H](CCCNC(=N)N)NC(=O)[C@H](CCCNC(=N)N)NC(=O)[C@H]([C@@H](C)CC)NC1=O [compound 263] yielded a Kd of 1 to 100 nM.

Same assay, conditions: SPR, immobilized recombinant hTfR, single-cycle kinetics; substitution variants of 894_3151; read-out: KD
CC[C@H](C)[C@@H]1NC(=O)[C@H](Cc2ccc(O)cc2)NC(=O)[C@H](Cc2ccc(O)cc2)NC(=O)[C@H](CC(N)=O)NC(=O)[C@H](Cc2c[nH]c3ccccc23)NC(=O)[C@H](C(C)C)NC(=O)[C@H](Cc2ccccc2)N(C)C(=O)[C@H](C(C)C)NC(=O)[C@H](Cc2ccccc2)NC(=O)CSC[C@@H](C(=O)NCCOCCOCCOCCOCCOCCOCCOCCOCCOCCOCCOCCOCCC(N)=O)NC(=O)[C@H](Cc2ccc(O)cc2)N(C)C(=O)[C@H](Cc2ccc(O)cc2)NC(=O)[C@H](CCCNC(=N)N)NC(=O)[C@H](CCCNC(=N)N)NC(=O)[C@H]([C@@H](C)CC)NC1=O [compound 254] gave a Kd of 110 nM.
In the case of CC[C@H](C)[C@@H]1NC(=O)[C@H](Cc2ccc(O)cc2)NC(=O)[C@H](Cc2ccc(O)cc2)NC(=O)[C@H](CC(N)=O)NC(=O)[C@H](Cc2c[nH]c3ccccc23)NC(=O)[C@H](C(C)C)NC(=O)[C@H](Cc2ccccc2)N(C)C(=O)[C@H](C(C)C)NC(=O)[C@H](CO)NC(=O)CSC[C@@H](C(=O)NCCOCCOCCOCCOCCOCCOCCOCCOCCOCCOCCOCCOCCC(N)=O)NC(=O)[C@H](Cc2ccc(O)cc2)N(C)C(=O)[C@H](Cc2ccc(O)cc2)NC(=O)[C@H](CCCNC(=N)N)NC(=O)[C@H](CCCNC(=N)N)NC(=O)[C@H]([C@@H](C)CC)NC1=O [compound 255], the Kd is reported as 24.4 nM.
CC[C@H](C)[C@@H]1NC(=O)[C@H](Cc2ccc(O)cc2)NC(=O)[C@H](Cc2ccc(O)cc2)NC(=O)[C@H](CC(N)=O)NC(=O)[C@H](Cc2c[nH]c3ccccc23)NC(=O)[C@H](C(C)C)NC(=O)[C@H](Cc2ccccc2)N(C)C(=O)[C@H](C(C)C)NC(=O)CNC(=O)CSC[C@@H](C(=O)NCCOCCOCCOCCOCCOCCOCCOCCOCCOCCOCCOCCOCCC(N)=O)NC(=O)[C@H](Cc2ccc(O)cc2)N(C)C(=O)[C@H](Cc2ccc(O)cc2)NC(=O)[C@H](CCCNC(=N)N)NC(=O)[C@H](CCCNC(=N)N)NC(=O)[C@H]([C@@H](C)CC)NC1=O [compound 256] was tested, and the Kd was 18.6 nM.
Work on CC[C@H](C)[C@@H]1NC(=O)[C@H](Cc2ccc(O)cc2)NC(=O)[C@H](Cc2ccc(O)cc2)NC(=O)[C@H](CC(N)=O)NC(=O)[C@H](Cc2c[nH]c3ccccc23)NC(=O)[C@H](CO)NC(=O)[C@H](Cc2ccccc2)N(C)C(=O)[C@H](C(C)C)NC(=O)[C@H](C)NC(=O)CSC[C@@H](C(=O)NCCOCCOCCOCCOCCOCCOCCOCCOCCOCCOCCOCCOCCC(N)=O)NC(=O)[C@H](Cc2ccc(O)cc2)N(C)C(=O)[C@H](Cc2ccc(O)cc2)NC(=O)[C@H](CCCNC(=N)N)NC(=O)[C@H](CCCNC(=N)N)NC(=O)[C@H]([C@@H](C)CC)NC1=O [compound 257] yielded a Kd of 164 nM.
Work on CC[C@H](C)[C@@H]1NC(=O)[C@H](Cc2ccc(O)cc2)NC(=O)[C@H](Cc2ccc(O)cc2)NC(=O)[C@H](CC(N)=O)NC(=O)[C@H](Cc2c[nH]c3ccccc23)NC(=O)[C@H](C)NC(=O)[C@H](Cc2ccccc2)N(C)C(=O)[C@H](C(C)C)NC(=O)[C@H](C)NC(=O)CSC[C@@H](C(=O)NCCOCCOCCOCCOCCOCCOCCOCCOCCOCCOCCOCCOCCC(N)=O)NC(=O)[C@H](Cc2ccc(O)cc2)N(C)C(=O)[C@H](Cc2ccc(O)cc2)NC(=O)[C@H](CCCNC(=N)N)NC(=O)[C@H](CCCNC(=N)N)NC(=O)[C@H]([C@@H](C)CC)NC1=O [compound 258] yielded a Kd of 177 nM.
Molecule CC[C@H](C)[C@@H]1NC(=O)[C@H](Cc2ccc(O)cc2)NC(=O)[C@H](Cc2ccc(O)cc2)NC(=O)[C@H](CC(N)=O)NC(=O)[C@H](Cc2c[nH]c3ccccc23)NC(=O)CNC(=O)[C@H](Cc2ccccc2)N(C)C(=O)[C@H](C(C)C)NC(=O)[C@H](C)NC(=O)CSC[C@@H](C(=O)NCCOCCOCCOCCOCCOCCOCCOCCOCCOCCOCCOCCOCCC(N)=O)NC(=O)[C@H](Cc2ccc(O)cc2)N(C)C(=O)[C@H](Cc2ccc(O)cc2)NC(=O)[C@H](CCCNC(=N)N)NC(=O)[C@H](CCCNC(=N)N)NC(=O)[C@H]([C@@H](C)CC)NC1=O [compound 259] has a Kd of 952 nM.
CC[C@H](C)[C@@H]1NC(=O)[C@H](Cc2ccc(O)cc2)NC(=O)[C@H](Cc2ccc(O)cc2)NC(=O)[C@H](CC(=O)O)NC(=O)[C@H](Cc2c[nH]c3ccccc23)NC(=O)[C@H](C(C)C)NC(=O)[C@H](Cc2ccccc2)N(C)C(=O)[C@H](C(C)C)NC(=O)[C@H](C)NC(=O)CSC[C@@H](C(=O)NCCOCCOCCOCCOCCOCCOCCOCCOCCOCCOCCOCCOCCC(N)=O)NC(=O)[C@H](Cc2ccc(O)cc2)N(C)C(=O)[C@H](Cc2ccc(O)cc2)NC(=O)[C@H](CCCNC(=N)N)NC(=O)[C@H](CCCNC(=N)N)NC(=O)[C@H]([C@@H](C)CC)NC1=O [compound 260] gave a Kd of 72.1 nM.
For CC[C@H](C)[C@@H]1NC(=O)[C@H](Cc2ccc(O)cc2)NC(=O)[C@H](Cc2ccc(O)cc2)NC(=O)[C@H](C)NC(=O)[C@H](Cc2c[nH]c3ccccc23)NC(=O)[C@H](C(C)C)NC(=O)[C@H](Cc2ccccc2)N(C)C(=O)[C@H](C(C)C)NC(=O)[C@H](C)NC(=O)CSC[C@@H](C(=O)NCCOCCOCCOCCOCCOCCOCCOCCOCCOCCOCCOCCOCCC(N)=O)NC(=O)[C@H](Cc2ccc(O)cc2)N(C)C(=O)[C@H](Cc2ccc(O)cc2)NC(=O)[C@H](CCCNC(=N)N)NC(=O)[C@H](CCCNC(=N)N)NC(=O)[C@H]([C@@H](C)CC)NC1=O [compound 261], the Kd was 279 nM.
With CC[C@H](C)[C@@H]1NC(=O)[C@H](Cc2ccccc2)NC(=O)[C@H](Cc2ccc(O)cc2)NC(=O)[C@H](Cc2ccc(O)cc2)NC(=O)[C@H](CC(N)=O)NC(=O)[C@H](Cc2c[nH]c3ccccc23)NC(=O)[C@H](C(C)C)NC(=O)[C@H](Cc2ccccc2)N(C)C(=O)[C@H](C(C)C)NC(=O)[C@H](C)NC(=O)CSC[C@@H](C(=O)NCCOCCOCCOCCOCCOCCOCCOCCOCCOCCOCCOCCOCCC(N)=O)NC(=O)[C@H](Cc2ccc(O)cc2)N(C)C(=O)[C@H](Cc2ccc(O)cc2)NC(=O)[C@H](CCCNC(=N)N)NC(=O)[C@H](CCCNC(=N)N)NC1=O [compound 262] the Kd was 218 nM.
